Values of other authors in patent US20040126343A1, “Nail drug delivery” (priority 2002, published 2004).

Conditions: single topical application on the human knee area; until the dosed site was washed at 24 h postdosing; cited from earlier work

Compound: O=C(O)Cc1ccccc1Nc1c(Cl)cccc1Cl [diclofenac]
- Delivery from the carrier through the skin and into the urine: continuous delivery
